Only a part is listed here, and it is no random draw. Activity calls are given as the source filed them. No stated cut-off is given here; in the data, active means activation mostly above about 9.7% (no sharp cut-off); inconclusive means no clear call, values can overlap the other calls; inactive means mostly below about 3.7%.

This experiment is described as follows: induces V. cholerae light production without autoinducers, primary screen, BH1578 luxS cqsA deficient, single point (AID 588436). The conditions noted are these: V. cholerae BH1578 lux reporter, luminescence, 6 h; at 18.7 µM; hits give high values.
For `CC(=O)NC(SC(=S)N(C)C)C(Cl)(Cl)Cl` (configuration not stated), the activation is inactive: -2.7%.

In the case of `O=[N+]([O-])c1ncn(CCn2cnc([N+](=O)[O-])n2)n1`, the activation is inactive: 4.36%.

In the case of `O=[As](O)(c1ccccc1)c1ccc(O)cc1`, the activation was inactive: -0.629%.

Take `C(Cc1nn[nH]n1)Cc1nn[nH]n1`: the activation is inactive: -0.313%.

Consider `Nc1ccc([As](=O)(O)c2ccc([N+](=O)[O-])cc2)cc1`, for which the activation is inactive: 0.468%.

As to `O=C(OC1CN2CCC1CC2)c1cccc(Cl)c1` (configuration not stated), the activation was inactive: -0.724%.

With `COc1ccc(N)c([N+](=O)[O-])c1[N+](=O)[O-]`, the activation was inactive: -0.416%.

Take `O=P(Nc1ccccn1)(c1ccc(Br)cc1)c1ccc(Br)cc1`: the activation was inactive: 2.13%.

For `CN(C)C1(CNC(=O)c2ccc(Cl)c(S(N)(=O)=O)c2)CCCCC1`, the activation was inactive: 0%.

As for `O=P(Nc1nc2ccccc2s1)(c1ccccc1)c1ccccc1`, the activation was inactive: 0%.

On to `C[C@H]1OP(=O)(Oc2ccccc2)[C@H](O)[C@H](O)[C@H]1N=[N+]=[N-]` (some centres not stated), for which the activation is inactive: 0%.

As to `COC(=O)c1cc2c(s1)N=C(c1ccccc1)N(C)P2(=O)N1CCOCC1` (configuration not stated), the activation is inactive: -0.13%.

`CC(=O)NC(SC(=S)N(CC(C)C)CC(C)C)C(Cl)(Cl)Cl` (configuration not stated): the activation is inactive: -3.68%.

As for `Cc1ccc(OP(=O)(Nc2ccccn2)Oc2ccc(C)cc2)cc1`, the activation is inactive: -1.39%.

In the case of `O=C(OC1CN2CCC1CC2)c1ccccc1` (configuration not stated), the activation was inactive: -0.811%.

In the case of `CCC(=O)N1C2C3N(C(=O)CC)C1C1N(C(=O)CC)C(C(N1C(=O)CC)N3C(=O)CC)N2C(=O)CC`, the activation is inactive: -1.82%.

Consider `CC(NC(=O)COC(=O)C(O)(c1ccccc1)c1ccccc1)c1ccccc1` (configuration not stated), for which the activation is inactive: 0.87%.

As for `Cc1ccccc1OP(=O)(Nc1ccccn1)Oc1ccccc1C`, the activation is inactive: -0.686%.

For the molecule `O=c1c2cc([N+](=O)[O-])ccc2[nH]c2c([N+](=O)[O-])cc([N+](=O)[O-])cc12`, the activation is inactive: 0%.

As for `CN(C)C(=O)Oc1noc2ccccc12`, the activation is inactive: -1.01%.

For `CCNC(=S)/N=C(\N)N[N+](=O)[O-]`, the activation was inactive: 4.55%.

Take `O=C(NC1CCS(=O)(=O)C1)NP(=S)(Oc1ccccc1)Oc1ccccc1` (configuration not stated): the activation is inactive: 0.0175%.

Turning to `c1ccc(-c2nn[nH]n2)c(-c2nn[nH]n2)c1`, the activation is inactive: -0.171%.

`Cc1ccc(NP(=O)(Oc2cccc(C)c2)Oc2cccc(C)c2)nc1`: the activation was inactive: -0.262%.

As to `O=P1(N(CCCl)CCCl)OCCC2CCCCN21` (configuration not stated), the activation is inactive: -0.971%.

In the case of `CC(=O)c1ccc(N2CC2c2ccncc2)cc1` (configuration not stated), the activation was inactive: 0%.

For `N#C/C(=C\c1ccc(N(CCBr)CCBr)cc1)C(N)=O`, the activation was inactive: -0.769%.

In the case of `COC(=O)C1(C)COP(=O)(NCc2ccccc2)OC1` (configuration not stated), the activation was inactive: 0%.

As to `Cc1ccccc1CN(C)C(=O)COC(=O)C(O)(c1ccccc1)c1ccccc1`, the activation is inactive: 0%.

`C[C@H]1OP(=O)(Oc2ccccc2)C[C@@H]2O[C@@H]21` (some centres not stated): the activation was inactive: 0%.

As to `C[C@@H]1C=CCP(=O)(Oc2ccccc2)O1` (some centres not stated), the activation was inactive: -2.17%.

For `CC(=O)Nc1ccc([As](=O)(O)O)c(O)c1`, the activation was inactive: -0.378%.

On to `CC(=O)Nc1ccc(Oc2c([N+](=O)[O-])cc([N+](=O)[O-])cc2[N+](=O)[O-])cc1`, for which the activation was inactive: -0.871%.

As for `O=P1(Nc2nc3ccc(Cl)cc3s2)COc2ccccc2O1` (configuration not stated), the activation was inactive: -11.1%.

For the molecule `CCOc1ccc(C2=NCC(CBr)S2)cc1` (configuration not stated), the activation is inactive: -0.141%.

For `CCc1cc(O)c([N+](=O)[O-])c(C)c1[N+](=O)[O-]`, the activation is inactive: -13%.

For `CC(C)(C)C(=O)NC(Sc1ccccc1)C(Cl)(Cl)Cl` (configuration not stated), the activation was inactive: -0.352%.

These data come from PubChem BioAssay AID588436 (Broad Institute, 2011).
